Test results taken from ChEMBL document CHEMBL3124844 (J Med Chem, 2014).

Species: Rattus norvegicus
Assay: Selectivity ratio of Ki for Sprague-Dawley rat brain DAT to Ki for Sprague-Dawley rat brain SERT

Structure (SMILES): O=C(C[S+]([O-])C(c1ccc(Br)cc1)c1ccc(Br)cc1)NCCCc1ccccc1 (stereo unspecified)
- Ratio Ki: 1.4
